The values that follow are results of earlier work, collected in article PMC6255974 (Frontiers in Pharmacology, 2018).

The structures appear in SMILES notation. Structures can show the parent of a compound that is named as a salt.

On the set-up of the data set: method as in Dieterich et al., 1984. Conditions: humans, oral 2 × 260 mg quinine sulfate, ref Dieterich et al., 1984, cited from earlier work.

Take `C=C[C@H]1C[N@@]2CC[C@H]1C[C@H]2[C@H](O)c1ccnc2ccc(OC)cc12` [quinine sulfate]: the Peak plasma concentration was 2.5 µg/mL. For the same compound, for the setting “12 h”, the “Plasma concentration after 12 h” value is 1600 ng/mL.
